Literature values as cited in patent US7399860B2, “Manufacture of polyglutamate-therapeutic agent conjugates” (Cell Therapeutics Inc., priority 1999, dated 2008).

Columns and labels:
[1] = compared with unconjugated paclitaxel (background)
[2] = compared with unconjugated paclitaxel (background); remark: listed apart in the source
[3] = system: tumor; conditions: tumor-bearing hosts; U.S. Pat. No. 5,977,163; Li et al. 1998

polyglutamic acid-paclitaxel conjugate
water solubility [1]: increased water solubility | accumulation in the tumor [2]: increased accumulation in the tumor | clearance from the body [2]: slower clearance | toxicity compared with the unconjugated form of the drug [3]: decreased toxicity
